In patent US11786604B2, “Compounds and compositions for treating HER2 positive tumors” (priority 2014, dated 2023):

Experiments:
[1] = Body weight of mice during and after therapy in PDX gastric tumor model; assay type: in vivo, BALB/c nu/nu nude mice; conditions: FIG. 4B; 10 mg/kg intravenously, weekly for a period of 45 days
[2] = system: subcutaneous patient derived gastric tumor; assay: Therapeutic efficacy in PDX gastric tumor model; assay type: in vivo, BALB/c nu/nu nude mice; conditions: FIG. 4C; 10 mg/kg intravenously, weekly for a period of 45 days; mice bearing subcutaneous patient derived gastric tumor; versus saline
Protocol: FIGS. 4A-4C depict therapeutic efficacy of Trastuzumab MC-vc-TLRL and Trastuzumab MC-TLRL in PDX gastric tumor model. BALB/c nu/nu nude mice 6-8 week-old female mice bearing subcutaneous patient derived gastric tumor were treated intravenously with 10 mg/kg of Trastuzumab MC-vc-TLRL, Trastuzumab MC-TLRL, or unconjugated Trastuzumab or saline (12 mice per group). Treatment was performed weekly for a period of 45 days. Therapy was initiated when tumors reached a size on average of 170 mm^3. FIG. 4A: Data represents mean tumor volumes (mean±SD). Tumor growth curves were stopped when tumors reached a size of 2000 mm^3. FIG. 4B: Body weight variations of the mice during and after therapy. […]
Drugs were administered by i.v. route with 5˜20 mg/kg of antibody or reference drug, QWK×3. Tumors were measured once a week by caliper to determine its subcutaneous growth. Tumors were measured twice a week in two dimensions with calipers. Tumor volume was calculated using following formula: tumor volume=(length×width2)×0.5. […]

Trastuzumab MC-vc-TLRL
Body weight variations of the mice during and after therapy [1]: No detectable weight loss | Survival curves of treatment and control groups [2]: substantial prolongation

Trastuzumab: humanized monoclonal antibody that acts on extracellular domain of Her2
Body weight variations of the mice during and after therapy [1]: No detectable weight loss | Survival curves of treatment and control groups [2]: substantial prolongation
